Data taken from ChEMBL document CHEMBL4229490, “Cytotoxic and NF-κB and mitochondrial transmembrane potential inhibitory pentacyclic triterpenoids from Syzygium corticosum and their semi-synthetic derivatives” (Bioorg Med Chem, 2018).
pIC50: −log10 of the molar value.

By UniProt entry, the sequences of proteins in these tests, tags left out.
UniProt Q04206, whole entry: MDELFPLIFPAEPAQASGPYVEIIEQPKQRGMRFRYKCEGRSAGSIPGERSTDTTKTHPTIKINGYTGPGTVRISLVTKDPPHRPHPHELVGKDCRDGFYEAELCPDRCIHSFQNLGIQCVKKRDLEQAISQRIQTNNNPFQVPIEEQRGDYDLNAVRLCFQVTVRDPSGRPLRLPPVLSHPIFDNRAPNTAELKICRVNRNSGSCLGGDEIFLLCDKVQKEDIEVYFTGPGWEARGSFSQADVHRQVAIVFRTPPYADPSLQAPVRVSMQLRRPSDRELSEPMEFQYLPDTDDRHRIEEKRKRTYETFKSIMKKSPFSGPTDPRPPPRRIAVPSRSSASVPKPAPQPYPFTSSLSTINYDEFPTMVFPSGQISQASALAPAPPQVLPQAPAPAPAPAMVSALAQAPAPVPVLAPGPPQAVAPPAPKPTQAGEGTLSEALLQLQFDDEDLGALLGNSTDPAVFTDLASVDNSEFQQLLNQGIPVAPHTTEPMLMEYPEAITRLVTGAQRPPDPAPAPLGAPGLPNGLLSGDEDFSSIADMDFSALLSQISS

Target: Transcription factor p65 (Homo sapiens, UniProt Q04206)
Assay: Inhibition of biotinylated consensus sequence binding to NF-kB p65 in human HeLa nuclear extracts after 3 hrs by ELISA
Method in brief: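 HeLa cells exposed to test samples at four concentrations for 3 h, then nuclear extracts prepared. Binding of activated p65 to a biotinylated consensus sequence was measured with an ELISA transcription-factor kit by chemiluminescence. Rocaglamide served as positive control. Run in triplicate, representative of independent experiments. IC50 expressed in μM.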

Q: With COc1ccc([C@@]23Oc4cc(OC)cc(OC)c4[C@]2(O)[C@H](O)[C@H](C(=O)N(C)C)[C@H]3c2ccccc2)cc1 [ROCAGLAMIDE] as the compound, how does the pIC50 read?
A: 7.15
